# Source: PubChem BioAssay (Broad Institute)
# ERp5 block: inhibitors of human ERp5; ERp5 insulin aggregation, absorbance 650 nm, 90 min; inhibition, % at 9.99 µM; hit rate 0.05% among 350,000;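 active = mean replicate inhibition above about 25%, with every replicate also reaching it, limit read from the data, passing the limit was not always enough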
# PDI turbidity: inhibitors of human protein disulfide isomerase | P07237 | PDI insulin aggregation turbidity, A650, 90 min | inhibition, % at 10 µM | hit rate 0.052% among 350,000 | AID 588391;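 active = mean inhibition across replicates of 30% or more, whatever share of single replicates reach that level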
# Yeast UUG start: alters start codon recognition fidelity in yeast. S. cerevisiae UUG-firefly luciferase reporter, luminescence/redox ratio. 350,000 tested, 0.13% active. activity score, % at 18.7 µM. AID 602363;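 active means replicate mean at a twofold rise or more, about +100% in these data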;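 further: firefly luciferase made from a UUG start codon reports start codon fidelity; reporter light over untreated wells divided by growth signal over untreated wells; some hits fall short of that in this replicate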
# FGF22 binding: shifts melting point of recombinant human FGF22; recombinant FGF22 thermal shift, SYPRO orange fluorescence; percent of sucrose octasulfate shift, DMSO zero; activity (Tm shift, normalised), % at 9.99 µM; hit rate 1.5% among 340,000; AID 651658;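 active = mean Tm shift, scaled 0 neutral to 100 positive control, at about 1.3% or above, every replicate too, limit read from the data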
# ARNT-TACC3 inh: disruptors of human ARNT/TACC3 interaction; AlphaScreen His-ARNT PAS-B/GST-TACC3 binding, luminescence; TACC3 fragment carries E629A point mutation; inhibition, % at 9.99 µM; hit rate 0.66% among 390,000; AID 623870;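 active = mean inhibition of replicates at least 50% and at least half of replicates each reaching 50%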;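 also: 0% = complete ARNT plus TACC3 wells and 100% = ARNT alone without TACC3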
# PglD inh: inhibitors of Campylobacter jejuni PglD acetyltransferase. inhibition, % at 12.5 µM. hit rate 0.098% among 360,000. purified PglD enzyme, DTNB colorimetric CoA detection; in the data active = inhibition above about 16%, passing the limit was not always enough
# An asterisk follows results filed as active; · = no result. An excerpt weighted towards active compounds, which were near 1.9% of everything screened.
cpd	Molecule	PglD inh	Yeast UUG start	ERp5 block
1	Cc1cc(=O)oc2cc(OCC(=O)Nc3ccccc3C(N)=O)c(Cl)cc12	-1	-22	1
2	CCCC#Cc1cnc2c(c1)C(=O)N([C@H](C)CO)C[C@H](C)[C@H](CN(C)C(=O)Nc1ccccc1OC)O2	-4	16	14
3	COc1ccc(S(=O)(=O)N2CCCC(C(=O)NCCN3CCOCC3)C2)cc1C (centres undefined)	3	-10	0
4	O=C(NCc1ccccc1)C1CCN(S(=O)(=O)N2CCOCC2)CC1	-1	-3	·
5	COc1ccc(CNC(=O)C2CCN(S(=O)(=O)c3ccccc3)CC2)cc1	4	1	1
6	O=C(NCCc1ccccc1)C1CCN(S(=O)(=O)N2CCOCC2)CC1	-2	0	7
7	C[C@H](NC(=O)C1CCN(S(=O)(=O)c2ccccc2)CC1)C(=O)NC1CC1	-2	-6	-13
8	CCS(=O)(=O)N1CCC(C(=O)NCc2ccc(OC)cc2)CC1	4	-10	0
9	CC(=O)N(C)C[C@H]1Oc2ncc(C#CC3(O)CCCC3)cc2C(=O)N([C@H](C)CO)C[C@@H]1C	1	10	0
10	CO[C@@H]1CN(C)C(=O)c2ccc(NS(=O)(=O)c3cn(C)cn3)cc2OC[C@H](C)NC[C@@H]1C	2	·	16

cpd	PDI turbidity	ARNT-TACC3 inh	FGF22 binding
1	-9	0	43*
2	·	-2	0
3	-49	3	43*
4	-11	0	·
5	6	·	0
6	-4	3	44*
7	2	·	43*
8	5	-5	43*
9	·	-5	0
10	·	·	0

# (continued)
cpd	Molecule	PglD inh	Yeast UUG start	ERp5 block
11	COc1ccc(S(=O)(=O)N2CCC(C(=O)N[C@H](C(=O)NCc3ccccc3)C(C)C)CC2)cc1	-2	-7	9
12	CS(=O)(=O)N1CCC(C(=O)NCc2ccccc2)CC1	·	·	4
13	O=C(CCNC(=O)C1CCN(S(=O)(=O)c2ccccc2)CC1)NCc1cccnc1	-5	5	9
14	COc1ccc(S(=O)(=O)N2CCC(C(=O)NCc3ccccc3)CC2)cc1OC	·	·	-4
15	COc1ccc(S(=O)(=O)N2CCC(C(=O)NCc3ccncc3)CC2)cc1Cl	-4	-32	-4
16	COc1ccc(S(=O)(=O)N[C@@H]2C=C[C@H](CC(=O)NCCc3ccncc3)O[C@@H]2CO)cc1	-1	·	-2
17	O=C(NCc1ccccc1F)C1CC(=O)N(Cc2ccco2)C1 (centres undefined)	2	-10	5
18	CCC(=O)Nc1ccc2c(c1)OC[C@H](C)N(C(=O)CC)C[C@H](C)[C@@H](OC)CN(C)C2=O	·	·	-2
19	COc1cc(NCCCC(C)N)c2ncccc2c1 (centres undefined)	·	-12	·
20	CCOC(=O)C(NC(=O)c1ccccc1)(OCc1ccccc1)C(F)(F)F (centres undefined)	·	·	3

cpd	PDI turbidity	ARNT-TACC3 inh	FGF22 binding
11	-1	·	44*
12	-5	6	44*
13	-6	·	43*
14	-4	26	43*
15	9	0	0
16	·	14	0
17	-10	·	44*
18	·	·	·
19	-2	67*	·
20	-10	-9	0

# The listing continues:
cpd	Molecule	PglD inh	Yeast UUG start	ERp5 block
21	CCOC(=O)C(NC(=O)c1cccc(Cl)c1)(OCc1ccccc1)C(F)(F)F (centres undefined)	-1	3	6
22	COc1ccc(S(=O)(=O)N(C)C[C@H]2OCCCC[C@H](C)Oc3ccc(NC(=O)Nc4ccccc4)cc3C(=O)N([C@@H](C)CO)C[C@H]2C)cc1	1	-16	·
23	O=C(C[C@@H]1CC[C@@H]2[C@H](COC[C@@H](O)CN2Cc2ccc(F)cc2)O1)N1CCc2ccccc2C1	25*	18	-4
24	O=C(Nc1ccc2c(c1)nc1n2CCN(Cc2ccccc2)C1)c1cccs1	-1	-19	-4
25	CC=Cc1ccc2n(c1=O)C[C@@H]1[C@@H](CO)[C@H](C(=O)NCCC)[C@H]2N1C(=O)Nc1cc(F)ccc1F (mixture of isomers)	-1	·	2
26	Cc1cc(C)n(-c2nc3ccccc3n3c(C)nnc23)n1	4	-3	3
27	Cc1ccc2c(c1)nc(-n1nc(C)cc1C)c1nnnn12	0	-18	-5
28	CCN(CC)c1ccc(CNc2nc3ccccc3n2C)cc1	·	·	2

cpd	PDI turbidity	ARNT-TACC3 inh	FGF22 binding
21	-2	-3	33*
22	·	-15	0
23	·	4	-1
24	-8	43*	·
25	·	-2	0
26	-2	1	0
27	-3	5	43*
28	-1	13	43*

# 2 entries from above, bar-delimited:
cpd | SMILES | PglD inh | Yeast UUG start | ERp5 block | PDI turbidity | ARNT-TACC3 inh | FGF22 binding
8 | CCS(=O)(=O)N1CCC(C(=O)NCc2ccc(OC)cc2)CC1 | 4 | -10 | 0 | 5 | -5 | 43*
9 | CC(=O)N(C)C[C@H]1Oc2ncc(C#CC3(O)CCCC3)cc2C(=O)N([C@H](C)CO)C[C@@H]1C | 1 | 10 | 0 | · | -5 | 0
